The values that follow are results of earlier work, collected in patent publication US20190343190A1, “MATERIALS INCLUDING POLYMERIC FIBERS INCORPORATING MICROCAPSULES OR NANOCAPSULES INCLUDING AN ESSENTIAL OIL” (President and Fellows of Harvard College, priority 2016, published 2019).

For the data set the following is noted: in vivo; cited from earlier work.

SMILES strings stand for the structures.

As to `C=Cc1ccccc1` [styrene], the “Dose at which 50% of the population died” value is reported as 0.2 mg per kilogram body weight per day.
